The text below walks through data of patent US4451485A, “Treatment of cardio-vascular diseases with 3-(2,2,2-trimethylhydrazinium) propionate dihydrate” (Institu Organicheskogo Sinteza Akademii Nauk Latviiskoi SSR, priority 1981, dated 1984).

Series [1] in a line: in vivo. The settings on record: mouse, ip, white mice, intraperitoneal, read-out: Acute toxicity, LD50.
Series [2] in a line: Coronary circulation and hemodynamics in narcotized cats. The settings on record: in vivo. The procedure:
In acute experiments on narcotized cats with a mass of from 2.9 to 4.1 kg under artificial respiration, arterial pressure was recorded in the common carotide artery, central venous pressure in the right auricle, volume rate of blood flow in the ascending aortic arch and volume rate of the coronary blood flow. At the same time, there was recorded the content of oxyhemoglobin in venous coronary blood.

Turning to `CCOC(=O)COc1ccc2c(C)c(CCN(CC)CC)c(=O)oc2c1` [Carbocromene, reference compound], the LD50 in series [1] was found to be 650 mg/kg. Moreover, in series [2], the Therapeutical index came out at 130.

As usually defined, the LD50 is the dose expected to kill half of the subjects tested.
